Data from patent US5852049A, “Aromatic ethers derived from indoles which are useful as medicaments” (Pierre Fabre Medicament, priority 1994, dated 1998).

Chains of the proteins cited; added tags and fusions are not shown.
UniProt P08908, whole entry: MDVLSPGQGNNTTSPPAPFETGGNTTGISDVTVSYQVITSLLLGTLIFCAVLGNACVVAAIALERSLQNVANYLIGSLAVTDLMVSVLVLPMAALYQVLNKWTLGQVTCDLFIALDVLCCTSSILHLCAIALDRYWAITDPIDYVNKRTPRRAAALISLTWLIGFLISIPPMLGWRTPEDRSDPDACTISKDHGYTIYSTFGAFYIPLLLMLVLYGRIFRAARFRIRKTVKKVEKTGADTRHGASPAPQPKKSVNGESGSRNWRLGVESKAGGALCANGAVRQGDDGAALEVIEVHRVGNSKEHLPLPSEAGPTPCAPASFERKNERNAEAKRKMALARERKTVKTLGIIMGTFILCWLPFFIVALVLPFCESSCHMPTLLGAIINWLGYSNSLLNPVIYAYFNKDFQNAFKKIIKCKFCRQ

Biological target: T1, human 5HT1A (Homo sapiens, UniProt P08908)
T1 construct: expressed in transfected cells; host or cells: HeLa HA7
Assay: binding to human 5HT1A receptor (HeLa HA7 cell line)
Conditions: HeLa HA7, [3H]-8OH-DPAT 1 nM
Source text: The HeLa HA7 cell line expressing the human 5HT1A receptor was obtained from Tulco (Duke Univ., Durham, N.C., USA) and cultured according to the method of Fargin et al., J. Biol. Chem. 264, 14848 (1989).
Palmier (Neuropharmacology, 33, 67, 1994).

Which Ki does the source give for `CNS(=O)(=O)Cc1ccc2[nH]cc(CCN(C)C)c2c1` [Sumatriptan, reference compound] here?
Its Ki is 440 nM.
